TDP1 cell CPT – growth inhibition of DT40 Tdp1-/-;hTDP1 cells with camptothecin (screen for TDP1 inhibitors); chicken DT40 Tdp1-/-;hTDP1 cells + 20 nM CPT, ATP luminescence, 48 h; 12% of 420,000 active; Potency, µM (highest dose often 46.2 µM), inactives show at the highest dose activity change, negative = growth inhibition, hits mostly inhibitors; further: potency means the concentration at half of the fitted maximal effect; on the % scale 0 is the no-effect control and ±100 the full control effect; nearly all actives have a fitted effect of over 55% in size
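Chicken DT40 Tdp1-/- cells stably complemented with human TDP1 were seeded at 400 cells/well in medium containing 20 nM camptothecin, exposed to pin-transferred compounds, and grown at 37 °C for at least 48 hr. Viability was read as ATP luminescence.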
uPA generation – cell surface uPA generation inhibition; Potency, µM (top dose mostly 38.3 µM), for inactives: top-dose activity change, negative = inhibition, most hits filed as inhibitors; AID 540303; 0.31% of 330,000 active; cell surface uPA generation assay, qHTS; active means well fitted inhibition curve with a large enough effect; inconclusive means small, poorly fitted or top-dose-only effect; inactive means no such curve, though single readings can be large or run the other way; tested in mouse RAW 264.7 cells; further: potency means the concentration at half of the fitted maximal effect; on the % scale 0 is the no-effect control and ±100 the full control effect; nearly all actives have a fitted effect of over 55% in size
TDP1 inh – inhibitors of human tyrosyl-DNA phosphodiesterase TDP1; recombinant TDP1, AlphaScreen DNA substrate cleavage; Potency, µM (doses to about 130 µM), without a hit: at the highest dose activity change, negative = inhibition, actives largely listed as inhibitors; 0.28% of 350,000 active; AID 485290; further: potency means the concentration at half of the fitted maximal effect; on the % scale 0 is the no-effect control and ±100 the full control effect; nearly all actives have a fitted effect of over 40% in size
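Enzyme-compound mixtures sat 15 min at room temperature, followed by a 5 min reaction with 15 nM final substrate and 10 min with AlphaScreen beads. Recombinant human Tdp1 was used at 1 nM final.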
DT40 TDP1 no CPT – qHTS for Inhibitors of human tyrosyl-DNA phosphodiesterase 1 (TDP1): qHTS in cells in absence of CPT. AID 686978, 2013. DT40 Tdp1-/- hTDP1 cells, no CPT, ATP luminescence, 48 h. Potency, µM (top dose mostly 46.2 µM), for inactives: at the top dose activity change, negative = growth inhibition, usual class: inhibitors. 15% of 420,000 active; further: potency means the concentration at half of the fitted maximal effect; on the % scale 0 is the no-effect control and ±100 the full control effect; nearly all actives have a fitted effect of over 55% in size
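Stably hTDP1-transfected Tdp1-null chicken DT40 cells were treated with library compounds minus camptothecin and grown for at least 48 hr at 37 °C, after which cellular ATP was quantified by luminescence.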
miR-21 reporter – miR-21 reporter, rising signal | 340,000 tested, under 10 active | AID 2288 | HeLa miR-21 FLuc reporter, luciferase, 48 h | Potency, µM (titrated, usually from 38.3 µM), for inactives: at the highest dose reporter change, positive = more light; active = well fitted rising curve with a large enough effect; inconclusive = small, poorly fitted or top-dose-only effect; inactive = no such curve, though single readings can be large or run the other way;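 further: % of control where 0% means no effect; miR-21 action dims this reporter so a rising signal means less miR-21 action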
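HeLa cells endogenously expressing miR-21, stably carrying CMV-driven firefly luciferase with a downstream miR-21 binding site, 2000 cells/well. Titrations up to approximately 40 uM, 48 hours; luciferase luminescence read.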
Numbers without * were called inactive; [ ] = dose if it differs, or a comment. This is a sample that favours compounds with a hit; in the whole collection about 16% have one here. Unless noted, the call rests on the fitted dose curve; in most records, active means well fitted curve in the direction sought with a large enough effect; inconclusive means small, poorly fitted or top-dose-only effect, or another doubt; inactive means no such curve, though single readings can be large; an effect the other way counts as inactive or inconclusive.

`O=C(NCc1ccco1)c1cnn2c1NC(c1ccccc1)CC2C(F)(F)F` (configuration not stated) gave TDP1 cell CPT 18µM*, TDP1 inh 11%, DT40 TDP1 no CPT -12% and miR-21 reporter 3%.
`CCCc1nc2ccc(Br)cn2c1Cc1ccccc1` gave TDP1 cell CPT 4.6µM* and DT40 TDP1 no CPT 2.9µM*.
For FC(F)(F)c1cc(Cl)c2nc(-c3cccc(Cl)c3)c(Cc3cccc(Cl)c3)n2c1 the results were TDP1 cell CPT -2% and DT40 TDP1 no CPT -21%.
CCCc1nc2ccc(Br)cn2c1Cc1cccc(Cl)c1 was read as TDP1 cell CPT 6.5µM* and DT40 TDP1 no CPT 4.6µM*.
For Cc1cc(C)n(-c2nc3c(c(=O)[nH]c(=O)n3C)n2CC(O)COc2ccc(Cl)cc2Cl)n1 (configuration not stated) the results were TDP1 cell CPT 6.5µM*, uPA generation -11%, TDP1 inh 2%, DT40 TDP1 no CPT 5.8µM* and miR-21 reporter -3%.
`COc1ccccc1OCC(O)Cn1c(Br)nc2c1c(=O)[nH]c(=O)n2C` (configuration not stated) gave TDP1 cell CPT inconclusive, uPA generation 2%, TDP1 inh 4%, DT40 TDP1 no CPT 15µM* and miR-21 reporter 11%.
Screening Cc1ccc(/C=N/NC(=O)c2nnn(-c3nonc3N)c2CN(C)C)o1 returned TDP1 cell CPT -3%, uPA generation 15%, TDP1 inh -1%, DT40 TDP1 no CPT -4% and miR-21 reporter 8%.
O=C(NCCOc1ccccc1Cl)c1cccc2c1C(=O)c1ccc(Cl)cc1S2(=O)=O was read as TDP1 cell CPT 23µM*, uPA generation 9%, TDP1 inh 0% and DT40 TDP1 no CPT 16µM*.
For O=C(NCc1cccc(F)c1)c1cccc2c1C(=O)c1ccc(Cl)cc1S2(=O)=O the results were TDP1 cell CPT inconclusive, uPA generation 3%, TDP1 inh 5% and DT40 TDP1 no CPT 5%.
`COc1ccc(-c2ccc3c(c2)S(=O)(=O)c2cccc(C(=O)NC[C@@H]4CCCO4)c2C3=O)cc1OC` gave TDP1 cell CPT inconclusive, uPA generation -7%, TDP1 inh -3% and DT40 TDP1 no CPT inconclusive.
`COc1ccc(OC[C@@H](O)CNC(=O)c2cccc3c2C(=O)c2ccc(-c4ccc(F)cc4OCc4ccccc4)cc2S3(=O)=O)cc1` gave TDP1 cell CPT 7.3µM*, uPA generation 7%, TDP1 inh 4% and DT40 TDP1 no CPT 10µM*.
`COc1ccc(-c2ccc3c(c2)S(=O)(=O)c2cccc(C(=O)NCCOc4ccccc4)c2C3=O)cc1OC` gave TDP1 cell CPT 18µM*, uPA generation 4%, TDP1 inh 0% and DT40 TDP1 no CPT inconclusive.
`O=C(NCCOc1ccccc1)c1cccc2c1C(=O)c1ccc(Cl)cc1S2(=O)=O` gave TDP1 cell CPT inconclusive, uPA generation -14%, TDP1 inh 4% and DT40 TDP1 no CPT 23µM*.
CSCC[C@H](NC(=O)c1cccs1)c1nnc2ccccn12 was read as TDP1 cell CPT -2%, uPA generation -8%, TDP1 inh 6%, DT40 TDP1 no CPT -21% and miR-21 reporter -6%.
`COC(=O)c1ccc(C(NC(=O)OCc2ccccc2)/C(C)=C/[C@@H](C)C(=O)NCCN2CCOCC2)cc1` (some centres not stated) gave TDP1 inh 3%.

Ordered by SMILES length (falling): some entries from above
`COc1ccc(-c2ccc3c(c2)S(=O)(=O)c2cccc(C(=O)NC[C@@H]4CCCO4)c2C3=O)cc1OC` gave TDP1 cell CPT inconclusive, uPA generation -7%, TDP1 inh -3% and DT40 TDP1 no CPT inconclusive.
For FC(F)(F)c1cc(Cl)c2nc(-c3cccc(Cl)c3)c(Cc3cccc(Cl)c3)n2c1 the results were TDP1 cell CPT -2% and DT40 TDP1 no CPT -21%.
O=C(NCCOc1ccccc1Cl)c1cccc2c1C(=O)c1ccc(Cl)cc1S2(=O)=O was read as TDP1 cell CPT 23µM*, uPA generation 9%, TDP1 inh 0% and DT40 TDP1 no CPT 16µM*.

Other structures.
`CN(C)c1ccc(CNC(=O)c2cccn2-c2nnc(N3CCCCC3)s2)cc1` gave TDP1 cell CPT 18µM*, TDP1 inh 5%, DT40 TDP1 no CPT 16µM* and miR-21 reporter 8%.
`CC(C)c1ccc(NC(=O)c2cccn2-c2nnc(N3CCCCC3)s2)cc1` gave TDP1 cell CPT 18µM*, TDP1 inh -3%, DT40 TDP1 no CPT inconclusive and miR-21 reporter -4%.
CC1(C)CC(NC(=O)c2cccc(S(=O)(=O)N(Cc3ccccc3)c3ccccc3)c2)CC(C)(C)N1 was read as TDP1 cell CPT inconclusive, uPA generation -4%, TDP1 inh 1%[0.505 µM] and DT40 TDP1 no CPT inconclusive.
Screening Oc1ccc(/C=N/N(Cc2ccccc2)c2ccccc2)c(O)c1O returned TDP1 cell CPT 26µM*, uPA generation -3%, TDP1 inh 10%, DT40 TDP1 no CPT 18µM* and miR-21 reporter 1%.
CN1C(=O)[C@H]2[C@@H](c3ccccc3)N[C@]3(CCCN(Cc4ccc(F)cc4)C3=O)[C@H]2C1=O was read as TDP1 cell CPT -4% and DT40 TDP1 no CPT -23%.
Screening Cc1ccc([C@H]2N[C@]3(CCCN(Cc4ccc(F)cc4)C3=O)[C@H]3C(=O)N(C)C(=O)[C@@H]23)cc1 returned TDP1 cell CPT inconclusive and DT40 TDP1 no CPT 13µM*.
Cc1ccc([C@H]2N[C@]3(CCCN(Cc4ccc(Br)cc4)C3=O)[C@H]3C(=O)N(C)C(=O)[C@@H]23)cc1 was read as TDP1 cell CPT 3% and DT40 TDP1 no CPT 13µM*.
Screening Cc1ccc(C(=O)N(c2ccc(C)cc2)S(=O)(=O)c2ccc(Cl)cc2)cc1 returned TDP1 cell CPT inconclusive, TDP1 inh -8%[12.3 µM], DT40 TDP1 no CPT 23µM* and miR-21 reporter 28%.
`COc1ccc(N(C(=O)COc2ccc(F)cc2)S(=O)(=O)c2ccc(C)cc2)cc1` gave TDP1 cell CPT -5%, uPA generation 1%, TDP1 inh 1%, DT40 TDP1 no CPT -13% and miR-21 reporter -9%.
`COc1ccc(N(C(=O)c2ccc(C(C)(C)C)cc2)S(=O)(=O)c2ccc(Cl)cc2)cc1` gave TDP1 cell CPT inconclusive, TDP1 inh -9%[12.3 µM], DT40 TDP1 no CPT 21µM* and miR-21 reporter inconclusive.
`COc1ccc(N(C(=O)c2ccccc2C)S(=O)(=O)c2ccc(C)cc2)cc1` gave TDP1 cell CPT 12µM*, TDP1 inh 2%[2.28 µM], DT40 TDP1 no CPT inconclusive and miR-21 reporter 21%.
Screening COc1ccc(N(C(=O)COc2ccccc2OC)S(=O)(=O)c2ccc(Cl)cc2)cc1 returned TDP1 cell CPT 16µM*, TDP1 inh 5%[12.3 µM], DT40 TDP1 no CPT 23µM* and miR-21 reporter -3%.
COc1ccc(N(C(=O)c2cccnc2)S(=O)(=O)c2ccc(Cl)cc2)cc1 was read as TDP1 cell CPT inconclusive, uPA generation -17%, DT40 TDP1 no CPT -15% and miR-21 reporter 0%.
COc1cc(/C=N/NC(=O)CCOc2ccccc2C)cc(Br)c1O was read as TDP1 cell CPT 19%, uPA generation 3%, TDP1 inh 5%, DT40 TDP1 no CPT -5% and miR-21 reporter -4%.

Compound activity from PubChem BioAssay.
